Key:
[1] = test system: gedunin signature; assay: Connectivity Map query with the gedunin signature
[2] = test system: celastrol signature; assay: Connectivity Map query with the celastrol signature

CCCN1CCC[C@@H]2Cc3n[nH]cc3C[C@H]21 [quinpirole]
gedunin score (connectivity score) [1]: 0 | celastrol score (connectivity score) [2]: 0

Reference: patent US20110263693A1, “CELASTROL, GEDUNIN, AND DERIVATIVES THEREOF AS HSP90 INHIBITORS” (DANA-FARBER CANCER INSTITUTE, INC., priority 2006, published 2011)
